Target: AMPA-R
Assay: [3H]AMPA radioligand binding assay on rat brain synaptic membranes;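 further: competition binding in which test compounds at rising concentrations displace [3H]AMPA from AMPA-R on rat brain synaptic membranes, with reduced bound radioligand as read-out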
Conditions: Table 8

ASGSCMAFCFUFUMUSED [RG-NG-1039] gave an IC50 of no less than 100 µM.

From US12559750B2, “Methods and compositions for treatment of polycystic kidney disease” (Regulus Therapeutics Inc., priority 2021, dated 2026)
